Experimental data published in US6043366A (priority 1997, dated 2000).

Amino acid sequences for entries named in this document (tags omitted). A change or cut given only in a name is not applied to a line headed by its entry.
UniProt P35370: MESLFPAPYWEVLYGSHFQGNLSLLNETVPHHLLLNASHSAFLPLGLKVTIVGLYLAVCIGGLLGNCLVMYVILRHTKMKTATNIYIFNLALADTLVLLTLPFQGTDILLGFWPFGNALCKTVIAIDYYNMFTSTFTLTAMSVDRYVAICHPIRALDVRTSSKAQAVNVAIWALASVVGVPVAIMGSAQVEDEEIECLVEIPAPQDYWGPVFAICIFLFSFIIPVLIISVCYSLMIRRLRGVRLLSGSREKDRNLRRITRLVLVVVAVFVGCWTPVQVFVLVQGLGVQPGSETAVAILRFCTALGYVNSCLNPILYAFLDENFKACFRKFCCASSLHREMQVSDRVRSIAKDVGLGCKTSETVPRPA

Target: rat OFQ receptor (LC132) (Rattus norvegicus, UniProt P35370)
Assay: OFQ-R binding assay ([3H]-OFQ competition)
Conditions: membranes of 293s-OFQ-R cells, IC50 converted to Ki by Cheng and Prusoff

| SMILES | affinity to the OFQ-receptor, given as pKi |
| --- | --- |
| CCCC1CCC(N2CCC3(CC2)C(=O)NCN3c2ccccc2)CC1 (centres unmarked) | 8,4 |
| CN1CN(c2ccccc2)C2(CCN(C3CCC4CCCCC4C3)CC2)C1=O (racemic) | 9,5 |
